In ChEMBL document CHEMBL4507258, “Data for DCP probe ABT-546” (2021) one finds IC50 data, which are given here for one molecule.

By UniProt entry, the sequences of proteins in these tests, tags left out.
UniProt P25101, whole entry: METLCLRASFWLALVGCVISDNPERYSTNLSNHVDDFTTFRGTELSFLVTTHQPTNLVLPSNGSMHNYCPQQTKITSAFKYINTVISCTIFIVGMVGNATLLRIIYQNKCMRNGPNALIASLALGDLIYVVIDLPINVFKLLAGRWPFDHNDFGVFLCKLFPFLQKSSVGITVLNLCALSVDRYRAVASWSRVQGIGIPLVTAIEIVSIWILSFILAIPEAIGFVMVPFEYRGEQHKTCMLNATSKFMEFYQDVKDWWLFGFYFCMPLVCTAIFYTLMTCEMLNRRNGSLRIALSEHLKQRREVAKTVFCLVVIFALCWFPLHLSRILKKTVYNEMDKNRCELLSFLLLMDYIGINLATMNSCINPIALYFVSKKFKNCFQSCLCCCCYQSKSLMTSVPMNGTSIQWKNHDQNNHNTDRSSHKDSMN

The target in the assay is Endothelin-1 receptor (Homo sapiens, UniProt P25101). In words: Endothelin-1-evoked phosphatidylinositol hydrolysis. Type of assay: functional.

Calls of active or inactive are those of the source. The rule behind the calls is not given here.

With `CCCCN(CCCC)C(=O)CN1C[C@H](c2cc(OC)c3c(c2)OCO3)[C@@H](C(=O)O)[C@@H]1CC(C)(C)CCC` [ABT-546], the IC50 is active: 0.59 nM.

For orientation: IC50 means the midpoint of a concentration-inhibition curve.
